Earlier results as cited in US20110301169A1, “Therapies for Treating Cancer Using Combinations of COX-2 Inhibitors and Antimetabolites” (priority 2007, published 2011).
Where two headings read alike, the source gives them in different places.

Tested on: HER2-positive breast cancer cell lines (BT474 and SKBR3)
Conditions: following trastuzumab exposure, cited from earlier work

In the case of “trastuzumab: recombinant DNA-derived humanized monoclonal antibody (IgG1 kappa) that selectively binds the extracellular domain of HER2”, the G0/G1 arrest (resistant cells) is given as 68%, the “cells in S-phase” value (resistant cells) is given as 14% and the G0/G1 arrest (sensitive cells) is given as 84%.
